Tested on: TC-71 (Ewing's sarcoma) cells
Assay: Cell proliferation assay, TC-71 (Alamar Blue)
Assay type: cell-based
Conditions: TC-71 cells, 72 h, read-out: TC71 EC50 range
Method: Cell Proliferation Assays
Published scientific data has described that interference with the Insulin-like Growth Factor-1 Receptor (IGF-1R) signaling pathway reduces the proliferation of TC-71 cells. Therefore TC-71 cells served as a positive control cell line for monitoring the activity of compounds against IGF-1R-mediated cell proliferation.
2000 TC-71 cells or 1000 HCT 116 cells were seeded per well in 180 μL IMDM+10% foetal calf serum (FCS)+penicillin/streptomycin into 96-well microtitre plates. The plates were placed in a cell culture incubator (37° C. in a humidified atmosphere of 95% […]/5 CO2) overnight. The following day, serial dilutions of compounds, prepared in duplicates, were transferred onto the cell layers (controls without compound). The cells were cultivated for a further 72 h in the cell culture incubator. 20 μL of Alamar Blue™ (Serotec Ltd, Düsseldorf, Germany) was added to each well and the plates incubated for 7 h in the cell culture incubator.

SMILES | EC50
CCn1cc(-c2ccc(-c3c4c(nn3C)CCc3cnc(Nc5ccn(CCOC)n5)nc3-4)cc2)cn1 [I-090] | < 10 nM
CCCn1cc(-c2ccc(-c3c4c(nn3C)CCc3cnc(Nc5ccn(CCOC)n5)nc3-4)cc2)cn1 [I-091] | < 10 nM
COCCn1cc(-c2ccc(-c3c4c(nn3C)CCc3cnc(Nc5ccn(CCOC)n5)nc3-4)cc2)cn1 [I-092] | < 10 nM
COCCn1ccc(Nc2ncc3c(n2)-c2c(nn(C)c2-c2ccc(-c4cnn(CCO)c4)cc2)CC3)n1 [I-093] | < 10 nM
COCCn1ccc(Nc2ncc3c(n2)-c2c(nn(C)c2-c2ccc(-c4cnn(CCN5CCOCC5)c4)cc2)CC3)n1 [I-094] | < 10 nM
CCn1cc(-c2ccc(-c3c4c(nn3C)CCc3cnc(Nc5ccn(CC(=O)N(C)C)n5)nc3-4)cc2)cn1 [I-095] | < 10 nM
CCCn1cc(-c2ccc(-c3c4c(nn3C)CCc3cnc(Nc5ccn(CC(=O)N(C)C)n5)nc3-4)cc2)cn1 [I-096] | < 10 nM
COCCn1cc(-c2ccc(-c3c4c(nn3C)CCc3cnc(Nc5ccn(CC(=O)N(C)C)n5)nc3-4)cc2)cn1 [I-097] | < 10 nM
CN(C)C(=O)Cn1ccc(Nc2ncc3c(n2)-c2c(nn(C)c2-c2ccc(-c4cnn(CCO)c4)cc2)CC3)n1 [I-098] | < 10 nM
CN(C)C(=O)Cn1ccc(Nc2ncc3c(n2)-c2c(nn(C)c2-c2ccc(-c4cnn(CCN5CCOCC5)c4)cc2)CC3)n1 [I-099] | < 10 nM
CCn1cc(-c2cccc(Cc3c4c(nn3C)CCc3cnc(Nc5ccn(C)n5)nc3-4)c2)cn1 [I-104] | < 10 nM
CCCn1cc(-c2cccc(Cc3c4c(nn3C)CCc3cnc(Nc5ccn(C)n5)nc3-4)c2)cn1 [I-105] | < 10 nM
Cn1ccc(Nc2ncc3c(n2)-c2c(nn(C)c2Cc2cccc(-c4cn[nH]c4)c2)CC3)n1 [I-106] | < 10 nM
COCCn1cc(-c2cccc(Cc3c4c(nn3C)CCc3cnc(Nc5ccn(C)n5)nc3-4)c2)cn1 [I-107] | < 10 nM
Cn1ccc(Nc2ncc3c(n2)-c2c(nn(C)c2Cc2cccc(-c4cnn(CCN5CCOCC5)c4)c2)CC3)n1 [I-108] | < 10 nM
Cn1ccc(Nc2ncc3c(n2)-c2c(nn(C)c2Cc2cccc(-c4cnn(CCO)c4)c2)CC3)n1 [I-110] | < 10 nM
CCn1ccc(Nc2ncc3c(n2)-c2c(nn(C)c2-c2ccc(-c4cnn(CCN5CCOCC5)c4)cc2)CC3)n1 [I-112] | < 10 nM
CCn1ccc(Nc2ncc3c(n2)-c2c(nn(C)c2-c2ccc(-c4cnn(CCN5CCN(C)CC5)c4)cc2)CC3)n1 [I-113] | < 10 nM
CCn1ccc(Nc2ncc3c(n2)-c2c(nn(C)c2-c2ccc(-c4cnn(CCN5CCN(CCO)CC5)c4)cc2)CC3)n1 [I-114] | < 10 nM
CCn1ccc(Nc2ncc3c(n2)-c2c(nn(C)c2-c2ccc(-c4cnn(CCNCCOC)c4)cc2)CC3)n1 [I-115] | < 10 nM
CCn1ccc(Nc2ncc3c(n2)-c2c(nn(C)c2-c2ccc(-c4cnn(CCN5CCCC5)c4)cc2)CC3)n1 [I-116] | 100 to 200 nM
CCn1ccc(Nc2ncc3c(n2)-c2c(nn(C)c2-c2ccc(-c4cnn(CCN5CCN(CCOC)CC5)c4)cc2)CC3)n1 [I-117] | < 10 nM
CCn1ccc(Nc2ncc3c(n2)-c2c(nn(C)c2-c2ccc(-c4cnn(CCN5CCNCC5)c4)cc2)CC3)n1 [I-118] | < 10 nM
CCn1ccc(Nc2ncc3c(n2)-c2c(nn(C)c2-c2ccc(-c4cnn(CCN(C)CCOC)c4)cc2)CC3)n1 [I-120] | < 10 nM
COc1cc(C(=O)O)ccc1Nc1ncc2c(n1)-c1c(nn(C)c1-c1ccc(-c3cnn(C)c3)cc1)CC2 [I-121] | < 10 nM
CCn1cc(-c2ccc(-c3c4c(nn3C)CCc3cnc(Nc5ccc(C(=O)O)cc5OC)nc3-4)cc2)cn1 [I-124] | < 10 nM
COc1cc(C(=O)O)ccc1Nc1ncc2c(n1)-c1c(nn(C)c1-c1ccc(-c3cnn(C(C)C)c3)cc1)CC2 [I-125] | < 10 nM
COCCn1cc(-c2ccc(-c3c4c(nn3C)CCc3cnc(Nc5ccc(C(=O)O)cc5OC)nc3-4)cc2)cn1 [I-126] | < 10 nM
COc1cc(C(=O)O)ccc1Nc1ncc2c(n1)-c1c(nn(C)c1-c1ccc(-c3cnn(CC(C)C)c3)cc1)CC2 [I-127] | 10 to 100 nM
